Ab-91 heavy chain CDR variants: yeast mating affinities

Antigen: PDVDLGDISGINAS, a 14-residue peptide of the SARS-CoV-2 spike HR2 region.

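Phage display of a naive human antibody library on the peptide gave the parent. In library AAYL51, one, two or three CDR residues were substituted; doubles and triples were drawn at random. The assay is AlphaSeq: two haploid yeast populations carry antibody and antigen on their surface. The frequency of each diploid, read from paired DNA barcodes, reflects how well the two displayed proteins bind. A regression on co-assayed BCL2-family reference pairs converts the normalised counts of each replicate to an apparent Kd. Each pool was mated in three replicate cultures.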

Parent scFv Ab-91: VL joined to VH by three GGGGS repeats. Changes lie in the heavy chain CDRs alone.
VL: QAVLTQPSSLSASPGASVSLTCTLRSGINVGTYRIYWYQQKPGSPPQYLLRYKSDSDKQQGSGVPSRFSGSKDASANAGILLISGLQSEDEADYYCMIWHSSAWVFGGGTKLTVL
VH: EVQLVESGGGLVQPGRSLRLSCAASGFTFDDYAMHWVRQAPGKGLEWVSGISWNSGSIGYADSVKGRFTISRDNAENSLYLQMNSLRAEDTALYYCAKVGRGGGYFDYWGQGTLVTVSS

Changes read parent residue, position, new residue, counted from the first residue of the VH shown. Scale: log10 of Kd in nM, estimated from mating counts; low values are strong binders. Averages over replicates are reported, and they cover detected replicates only. Where no diploid with the target was found in that replicate, the entry reads "nd": below detection, most likely a poor binder, though not proof of it. Background: pairings of library AAYL51 with three empty control strains gave a value in 21% of cases (median 4.54, 5th percentile 3.26). Values in that range, when seen in few replicates, are hard to tell from nonspecific mating. Also given: how often the same scFv was detected with the empty control strains, with their mean in brackets.

| changes | replicates, log10 nM | log10 Kd (nM), mean | empty controls |
|---|---|---|---|
| A61W+V64R+Y108D | nd nd 5.07 | 5.07 | 3 of 9 (3.97) |
| G59L+Y60M+D62K | 4.94 5.70 5.83 | 5.49 | 7 of 9 (4.97) |
| T28M+Y32L+W53M | nd nd nd | nd | 0 of 9 |
| D31E+Y32M+N54L | 4.06 nd nd | 4.06 | 3 of 9 (4.38) |
| G26E+D31G+G104Y | 4.51 nd nd | 4.51 | 1 of 9 (4.96) |
| G26V+H35A+I51R | 5.30 nd nd | 5.30 | 2 of 9 (4.85) |
| G26C+S52Q+S63L | 4.35 4.50 4.52 | 4.46 | 5 of 9 (4.77) |
| S57A+A61Y+G100I | 4.66 nd nd | 4.66 | 1 of 9 (5.04) |
| F29H+A33L+F106P | 5.96 6.51 4.91 | 5.79 | 3 of 9 (5.03) |
| I51W+I58W+D107M | nd nd nd | nd | 0 of 9 |
| D62R+V64K | nd nd nd | nd | 0 of 9 |
| H35S+G50S+S52H | 5.63 6.06 4.49 | 5.40 | 1 of 9 (3.84) |
| T28Q+D30R+Y32T | 0.37 0.18 -0.33 | 0.07 | 1 of 9 (4.30) |
| H35P+S52I+W53K | 4.66 5.37 nd | 5.02 | 5 of 9 (4.93) |
| D62K+G102W+Y105T | nd nd nd | nd | 0 of 9 |
| A33N+W53Y+V64Q | nd nd nd | nd | 0 of 9 |
| G50W+N54T | nd nd nd | nd | 0 of 9 |
| S63L | 4.44 4.70 nd | 4.57 | 0 of 9 |
| G26D+Y60N | 4.33 nd 4.73 | 4.53 | 0 of 9 |
| M34T+N54C | 3.27 nd nd | 3.27 | 0 of 9 |
| F27T+D31M+G103A | nd nd nd | nd | 1 of 9 (4.53) |
| Y32N+I51D+W53N | 4.50 nd nd | 4.50 | 0 of 9 |
| N54Y+K65E+G100H | nd nd nd | nd | 0 of 9 |
| G50M+V99A+Y105V | 5.69 nd nd | 5.69 | 2 of 9 (4.03) |
| G26A+V99K+R101F | 5.36 nd nd | 5.36 | 3 of 9 (4.34) |
| G50T+G104K+Y108M | 3.17 nd nd | 3.17 | 1 of 9 (2.88) |
| F29L+G59V | nd nd nd | nd | 0 of 9 |
| M34D+G59V+F106N | nd nd nd | nd | 3 of 9 (3.49) |
| F27W+V99S+F106L | nd 4.38 nd | 4.38 | 1 of 9 (3.86) |
| F27Y+D31Q+H35P | 6.32 6.47 nd | 6.39 | 5 of 9 (4.38) |
| A33D+S63H+D107T | nd nd nd | nd | 0 of 9 |
| D31H+G102M+G104S | 4.58 5.70 5.62 | 5.30 | 3 of 9 (5.19) |
| F27K+G56V+V99Y | 4.62 nd nd | 4.62 | 1 of 9 (4.14) |
| F27Q+W53G+Y60S | nd nd nd | nd | 0 of 9 |
| A33S+S57F+G104V | nd 4.81 nd | 4.81 | 1 of 9 (4.63) |
| A33V+V64R+G103I | nd nd nd | nd | 0 of 9 |
| D31G+W53E+I58E | 4.13 nd nd | 4.13 | 0 of 9 |
| W53V+V64S | 5.49 4.74 nd | 5.11 | 3 of 9 (4.64) |
| S55I+G100Q+R101I | nd nd nd | nd | 0 of 9 |
| D31C+G104A+D107R | 4.16 3.85 nd | 4.00 | 3 of 9 (4.97) |
| S55Y+Y60W+S63L | 5.12 nd 4.43 | 4.77 | 1 of 9 (4.53) |
| D31H+G59N+V64C | 3.58 4.42 4.96 | 4.32 | 3 of 9 (4.73) |
| D31I+Y60T+V99L | 5.78 nd nd | 5.78 | 1 of 9 (3.55) |
| M34G+H35S+G56P | nd nd nd | nd | 0 of 9 |
| A33Y+V64N+G103M | 5.41 nd nd | 5.41 | 0 of 9 |
| F29Y+S52D+W53V | 3.78 3.95 nd | 3.87 | 2 of 9 (3.84) |
| H35Q+G56K+R101S | nd 2.35 nd | 2.35 | 0 of 9 |
| W53E+Y60Q+D107W | 3.02 nd nd | 3.02 | 2 of 9 (4.57) |
| G26F+S55K+F106C | nd nd nd | nd | 0 of 9 |
| H35W+S63D+G100S | nd nd nd | nd | 1 of 9 (2.84) |

The first 8 variants above that were never detected:

{"changes": "T28M+Y32L+W53M", "replicates, log10 nM": "nd nd nd", "log10 Kd (nM), mean": "nd", "empty controls": "0 of 9"}
{"changes": "I51W+I58W+D107M", "replicates, log10 nM": "nd nd nd", "log10 Kd (nM), mean": "nd", "empty controls": "0 of 9"}
{"changes": "D62R+V64K", "replicates, log10 nM": "nd nd nd", "log10 Kd (nM), mean": "nd", "empty controls": "0 of 9"}
{"changes": "D62K+G102W+Y105T", "replicates, log10 nM": "nd nd nd", "log10 Kd (nM), mean": "nd", "empty controls": "0 of 9"}
{"changes": "A33N+W53Y+V64Q", "replicates, log10 nM": "nd nd nd", "log10 Kd (nM), mean": "nd", "empty controls": "0 of 9"}
{"changes": "G50W+N54T", "replicates, log10 nM": "nd nd nd", "log10 Kd (nM), mean": "nd", "empty controls": "0 of 9"}
{"changes": "F27T+D31M+G103A", "replicates, log10 nM": "nd nd nd", "log10 Kd (nM), mean": "nd", "empty controls": "1 of 9 (4.53)"}
{"changes": "N54Y+K65E+G100H", "replicates, log10 nM": "nd nd nd", "log10 Kd (nM), mean": "nd", "empty controls": "0 of 9"}

In this assay the parent's reference entry averaged 1.86; its copy inside this library read 0.88.

The measurements come from Engelhart et al. 2022 (doi:10.1038/s41597-022-01779-4) through the FLAb antibody collection.